{
  "source": "patent US20240409505A1",
  "about": "“GLUCONAMIDE SULFATE SURFACTANTS” (The Procter & Gamble Company, priority 2023, published 2024)",
  "test": "Final product mixed with Deionized Water at room temperature",
  "settings": "0.0130 g of final product mixed with 1.287 g of Deionized Water at room temperature",
  "source_text": "Vacuum filtered solution through Grade 4 filter paper to obtain a clear, colorless solution. […] The solution was concentrated using a rotary evaporator until mixture began to foam, then solution was transferred to a glass crystallizing dish and placed in a vacuum oven at room temperature under a partial vacuum of 3 inches of Hg internal oven pressure.",
  "data": [
    {"substance": "Sodium (2R,3R,4S,5R)-6-((3-dodecyloxy) propyl)amino)-2,3,4,5-tetrahydroxy-6-oxohexyl sulfate [Example 6]", "values": [
      {"measurement": "appearance of mixture with Deionized Water (solubility)", "result": "completely clear, colorless solution that foamed when shaken"}
    ]}
  ]
}
